Measured values from ChEMBL document CHEMBL3991945, “TASPASE1 inhibitors and their uses” (2013).

Biological target: T1, Threonine aspartase 1 (Homo sapiens) (UniProt Q9H6P5)
T1 sequence (whole entry): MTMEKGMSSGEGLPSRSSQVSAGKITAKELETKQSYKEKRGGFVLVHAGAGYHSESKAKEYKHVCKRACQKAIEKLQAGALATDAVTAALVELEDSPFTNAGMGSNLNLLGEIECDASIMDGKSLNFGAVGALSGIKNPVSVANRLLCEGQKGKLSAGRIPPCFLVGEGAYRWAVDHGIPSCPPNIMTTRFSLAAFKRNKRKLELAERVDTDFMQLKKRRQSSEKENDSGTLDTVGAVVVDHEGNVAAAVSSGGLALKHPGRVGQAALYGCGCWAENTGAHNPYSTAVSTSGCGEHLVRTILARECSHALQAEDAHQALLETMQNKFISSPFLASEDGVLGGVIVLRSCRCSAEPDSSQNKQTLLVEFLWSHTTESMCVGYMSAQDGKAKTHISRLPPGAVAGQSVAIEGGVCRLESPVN
Test: Inhibition of recombinant Taspase1 (unknown origin) at 10 to 1000 uM using [35S]-methionine labeled human MLL1 (2400-2900 residues) as substrate preincubated for 30 mins followed by substrate addition measured after 30 mins by SDS-PAGE based autoradiography

Compound: O=[N+]([O-])c1cc([As](=O)(O)O)ccc1Cc1ccc([As](=O)(O)O)cc1[N+](=O)[O-]
- inhibition: inactive

Calls of active or inactive are those of the source. The rule behind the calls is not given here.
